From ChEMBL document CHEMBL5154699 (Eur J Med Chem, 2022) come the findings set out here.

Sequences of proteins named here, by UniProt entry; tags and fusion partners are left off.
UniProt P33533, whole entry, looked up: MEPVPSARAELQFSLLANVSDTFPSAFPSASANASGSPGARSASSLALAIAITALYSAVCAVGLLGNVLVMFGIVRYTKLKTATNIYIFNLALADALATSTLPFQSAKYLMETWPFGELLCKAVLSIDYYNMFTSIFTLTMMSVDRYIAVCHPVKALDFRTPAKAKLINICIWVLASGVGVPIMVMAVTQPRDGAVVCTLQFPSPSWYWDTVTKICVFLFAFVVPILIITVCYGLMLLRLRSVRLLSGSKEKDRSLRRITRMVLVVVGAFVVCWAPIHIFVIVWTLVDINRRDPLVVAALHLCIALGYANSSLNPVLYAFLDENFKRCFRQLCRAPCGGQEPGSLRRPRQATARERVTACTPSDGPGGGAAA
UniProt P97266, whole entry, looked up: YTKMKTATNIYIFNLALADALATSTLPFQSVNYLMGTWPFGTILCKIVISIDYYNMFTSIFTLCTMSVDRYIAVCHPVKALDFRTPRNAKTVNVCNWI

Experiment [1] addresses Delta-type opioid receptor (Rattus norvegicus) (UniProt P33533). As to the kind of experiment: Displacement of [3H]-DPDPE from DOR in rat brain membranes at 1 uM measured by competitive radioligand receptor binding assay relative to control. The settings on record: Membrane. (Loss of bound radioactivity is the signal in a displacement assay; it reports binding, not function.)

Experiment [2] addresses Mu-type opioid receptor (Cavia porcellus) (UniProt P97266). As to the kind of experiment: Displacement of [3H]-DAMGO from MOR in guinea pig brain membranes at 1 uM measured by competitive radioligand receptor binding assay relative to control. The settings on record: Membrane.

Structures are written as SMILES.

Take `CN(C)[C@@H]1C[C@@H]2CCN(C(=O)Cc3ccc(Cl)c(Cl)c3)[C@H]1C2`: in experiment [1], the Activity is 0%.
`O=C(Cc1ccc(Cl)c(Cl)c1)N1CC[C@H]2C[C@@H]1[C@@H](N1CCCC1)C2`: the Activity in experiment [2] and in experiment [1] was 0% in each case.
In experiment [2], `O=C(Cc1ccc(Cl)c(Cl)c1)N1CC[C@H]2C[C@@H](N3CCCC3)[C@@H]1C2` displayed an Activity of 0%.
As for `CN(C)[C@H]1C[C@H]2CCN(C(=O)Cc3ccc(Cl)c(Cl)c3)[C@@H]1C2`, the Activity in experiment [2] and in experiment [1] was 0% in each case.
